{
  "source": "paper PMC8713283",
  "about": "(Journal of Medicinal Chemistry, 2021)",
  "key": {"22Rv1 cells [1]": {"system": "22Rv1 cells", "conditions": "CellTiter-Glo, mean ± S.E., N = 2"}, "MV4;11 cells [2]": {"system": "MV4;11 cells", "conditions": "CellTiter-Glo, mean ± S.E., N = 3"}, "[3]": {"system": "MDCK-MDR1 cells expressing human Pgp", "conditions": "for Recover Rate / Papp, A-B mean / Papp, B-A mean: 5 µM; for Papp, A-B mean: apical to basal; for Papp, B-A mean: basal to apical"}, "22Rv1 cells [4]": {"system": "22Rv1 cells", "assay": "cells", "conditions": "Homo sapiens, 22Rv1, 72 h"}, "MV4;11 cells [5]": {"system": "MV4;11 cells", "assay": "cells", "conditions": "Homo sapiens, MV4-11, 24 h"}, "[6]": {"conditions": "read-out: 22Rv1 Viability (72h) pEC50 (converted)"}, "[7]": {"conditions": "read-out: MV4;11 Viability (24h) pEC50"}},
  "note": "Like-named read-outs stand apart in the source and are kept apart here.",
  "data": [
    {"molecule": "Cc1ncsc1-c1ccc(CNC(=O)[C@@H]2C[C@H](O)CN2C(=O)[C@@H](NC(=O)COCCOCCOCCNC(=O)C[C@@H]2N=C(c3ccc(Cl)cc3)c3c(sc(C)c3C)-n3c(C)nnc32)C(C)(C)C)cc1", "note": "(relative stereo) [cis-MZ1]", "values": [
      {"measurement": "22Rv1 Viability (72h) pEC50", "setting": "22Rv1 cells [1]", "value": "≤ 5.0"},
      {"measurement": "MV4;11 Viability (24h) pEC50", "setting": "MV4;11 cells [2]", "value": "≤ 5.0"}
    ]},
    {"molecule": "COCC(=O)NCCCCCC(=O)N[C@H](C(=O)N1C[C@H](O)C[C@H]1C(=O)NCc1ccc(-c2scnc2C)cc1)C(C)(C)C", "note": "[Compound 1, (2S,4R)-4-Hydroxy-1-((S)-2-(6-(2-methoxyacetamido)hexanamido)-3,3-dimethylbutanoyl)-N-(4-(4-methylthiazol-5-yl)benzyl)pyrrolidine-2-carboxamide]", "values": [
      {"measurement": "Recover Rate", "setting": "[3]", "value": 108, "unit": "%"},
      {"measurement": "Efflux ratio B-A/A-B", "setting": "[3]; MDCK-MDR1, 5 µM, N = 2", "value": 3.1}
    ]},
    {"molecule": "CCCC(=O)NCCCCCC(=O)N[C@H](C(=O)N1C[C@H](O)C[C@H]1C(=O)NCc1ccc(-c2scnc2C)cc1)C(C)(C)C", "note": "[Compound 2, (2S,4R)-1-((S)-2-(6-Butyramidohexanamido)-3,3-dimethylbutanoyl)-4-hydroxy-N-(4-(4-methylthiazol-5-yl)benzyl)pyrrolidine-2-carboxamide]", "values": [
      {"measurement": "Recover Rate", "setting": "[3]", "value": 100, "unit": "%"}
    ]},
    {"molecule": "Cc1ncsc1-c1ccc(CNC(=O)[C@@H]2C[C@@H](O)CN2C(=O)[C@@H](NC(=O)CCCCCNC(=O)Cc2ccccc2)C(C)(C)C)cc1", "note": "[Compound 3, (2S,4R)-1-((S)-3,3-Dimethyl-2-(6-(2-phenylacetamido)hexanamido)butanoyl)-4-hydroxy-N-(4-(4-methylthiazol-5-yl)benzyl)pyrrolidine-2-carboxamide]", "values": [
      {"measurement": "Recover Rate", "setting": "[3]", "value": 100, "unit": "%"}
    ]},
    {"molecule": "Cc1ncsc1-c1ccc(CNC(=O)[C@@H]2C[C@@H](O)CN2C(=O)[C@@H](NC(=O)CCCCCNC(=O)C2CCCCC2)C(C)(C)C)cc1", "note": "[Compound 4, (2S,4R)-1-((S)-2-(6-(Cyclohexanecarboxamido)hexanamido)-3,3-dimethylbutanoyl)-4-hydroxy-N-(4-(4-methylthiazol-5-yl)benzyl)pyrrolidine-2-carboxamide]", "values": [
      {"measurement": "Recover Rate", "setting": "[3]", "value": 98, "unit": "%"}
    ]},
    {"molecule": "Cc1ncsc1-c1ccc(CNC(=O)[C@@H]2C[C@@H](O)CN2C(=O)[C@@H](NC(=O)CCCCCNC(=O)CC23CC4CC(CC(C4)C2)C3)C(C)(C)C)cc1", "note": "[Compound 5, (2S,4R)-1-((S)-2-(6-(2-(Adamantan-1-yl)acetamido)hexanamido)-3,3-dimethylbutanoyl)-4-hydroxy-N-(4-(4-methylthiazol-5-yl)benzyl)pyrrolidine-2-carboxamide]", "values": [
      {"measurement": "Recover Rate", "setting": "[3]", "value": 85, "unit": "%"}
    ]},
    {"molecule": "CCCCOc1ccc(-c2ccc(C(=O)NCCCCCC(=O)N[C@H](C(=O)N3C[C@H](O)C[C@H]3C(=O)NCc3ccc(-c4scnc4C)cc3)C(C)(C)C)cc2)cc1", "note": "[Compound 7, (2S,4R)-1-((S)-2-(6-(4′-Butoxy-[1,1′-biphenyl]-4-carboxamido)hexanamido)-3,3-dimethylbutanoyl)-4-hydroxy-N-(4-(4-methylthiazol-5-yl)benzyl)pyrrolidine-2-carboxamide]", "values": [
      {"measurement": "Recover Rate", "setting": "[3]", "value": 31, "unit": "%"}
    ]},
    {"molecule": "Cc1ncsc1-c1ccc(CNC(=O)[C@@H]2C[C@@H](O)CN2C(=O)[C@@H](NC(=O)CCCCCOC(=O)CC23CC4CC(CC(C4)C2)C3)C(C)(C)C)cc1", "note": "[Compound 12, 6-(((S)-1-((2S,4R)-4-Hydroxy-2-((4-(4-methylthiazol-5-yl)benzyl)carbamoyl)pyrrolidin-1-yl)-3,3-dimethyl-1-oxobutan-2-yl)amino)-6-oxohexyl 2-(adamantan-1-yl)acetate]", "values": [
      {"measurement": "Papp, A-B mean", "setting": "[3]; N = 2", "value": "BLD"}
    ]},
    {"molecule": "CCCCOc1ccc(-c2ccc(C(=O)OCCCCCC(=O)N[C@H](C(=O)N3C[C@H](O)C[C@H]3C(=O)NCc3ccc(-c4scnc4C)cc3)C(C)(C)C)cc2)cc1", "note": "[Compound 14, 6-(((S)-1-((2S,4R)-4-Hydroxy-2-((4-(4-methylthiazol-5-yl)benzyl)carbamoyl)pyrrolidin-1-yl)-3,3-dimethyl-1-oxobutan-2-yl)amino)-6-oxohexyl 4′-butoxy-[1,1′-biphenyl]-4-carboxylate]", "values": [
      {"measurement": "Recover Rate", "setting": "[3]", "value": 15, "unit": "%"},
      {"measurement": "Papp, A-B mean", "setting": "[3]; N = 2", "value": "BLD"},
      {"measurement": "Papp, B-A mean", "setting": "[3]; N = 2", "value": "BLD"}
    ]},
    {"molecule": "Cc1ncsc1-c1ccc(CNC(=O)[C@@H]2C[C@@H](O)CN2C(=O)[C@@H](NC(=O)CCOCCOCCNC(=O)Cc2ccccc2)C(C)(C)C)cc1", "note": "[Compound 16, (2S,4R)-1-((S)-14-(tert-Butyl)-2,12-dioxo-1-phenyl-6,9-dioxa-3,13-diazapentadecan-15-oyl)-4-hydroxy-N-(4-(4-methylthiazol-5-yl)benzyl)pyrrolidine-2-carboxamide]", "values": [
      {"measurement": "Papp, A-B mean", "setting": "[3]; N = 2", "value": "BLD"}
    ]},
    {"molecule": "Cc1ncsc1-c1ccc(CNC(=O)[C@@H]2C[C@@H](O)CN2C(=O)[C@@H](NC(=O)CCOCCOCCOCCNC(=O)Cc2ccccc2)C(C)(C)C)cc1", "note": "[Compound 17, (2S,4R)-1-((S)-17-(tert-Butyl)-2,15-dioxo-1-phenyl-6,9,12-trioxa-3,16-diazaoctadecan-18-oyl)-4-hydroxy-N-(4-(4-methylthiazol-5-yl)benzyl)pyrrolidine-2-carboxamide]", "values": [
      {"measurement": "Papp, A-B mean", "setting": "[3]; N = 2", "value": "BLD"}
    ]},
    {"molecule": "Cc1ncsc1-c1ccc(CNC(=O)[C@@H]2C[C@@H](O)CN2C(=O)[C@@H](NC(=O)COCCOCCOCCNC(=O)C[C@@H]2N=C(c3ccc(Cl)cc3)c3c(sc(C)c3C)-n3c(C)nnc32)C(C)(C)C)cc1", "note": "[Compound 21, MZ1]", "values": [
      {"measurement": "Recover Rate", "setting": "[3]", "value": 98, "unit": "%"},
      {"measurement": "EC50", "setting": "22Rv1 cells [4]; [6]", "value": 501, "unit": "nM"},
      {"measurement": "EC50", "setting": "MV4;11 cells [5]; [7]", "value": 126, "unit": "nM"}
    ]},
    {"molecule": "Cc1ncsc1-c1ccc([C@H](C)NC(=O)[C@@H]2C[C@@H](O)CN2C(=O)[C@@H](NC(=O)COCCCOCCNC(=O)C[C@@H]2N=C(c3ccc(Cl)cc3)c3c(sc(C)c3C)-n3c(C)nnc32)C(C)(C)C)cc1", "note": "[Compound 22, ARV-771]", "values": [
      {"measurement": "EC50", "setting": "22Rv1 cells [4]; [6]", "value": 39.8, "unit": "nM"},
      {"measurement": "EC50", "setting": "22Rv1 cells [4]; read-out: EC50 22Rv1", "value": 44, "unit": "nM"},
      {"measurement": "EC50", "setting": "MV4;11 cells [5]; read-out: EC50 MV4;11", "value": 18, "unit": "nM"},
      {"measurement": "EC50", "setting": "MV4;11 cells [5]; [7]", "value": 20, "unit": "nM"}
    ]},
    {"molecule": "Cc1ncsc1-c1ccc(CNC(=O)[C@@H]2C[C@@H](O)CN2C(=O)[C@@H](NC(=O)COCCOCCOCCOC(=O)C[C@@H]2N=C(c3ccc(Cl)cc3)c3c(sc(C)c3C)-n3c(C)nnc32)C(C)(C)C)cc1", "note": "[Compound 25, (S)-13-((2S,4R)-4-Hydroxy-2-((4-(4-methylthiazol-5-yl)benzyl)carbamoyl)pyrrolidine-1-carbonyl)-14,14-dimethyl-11-oxo-3,6,9-trioxa-12-azapentadecyl 2-((S)-4-(4-Chlorophenyl)-2,3,9-trimethyl-6H-thieno[3,2-f][1,2,4]triazolo[4,3-a][1,4]diazepin-6-yl)acetate]", "values": [
      {"measurement": "Papp, B-A mean", "setting": "[3]; N = 2", "value": "BLD"}
    ]},
    {"molecule": "C[C@H]1O[C@@H](O[C@H]2[C@@H](O)C[C@H](O[C@H]3[C@@H](O)C[C@H](O[C@H]4CC[C@@]5(C)[C@H](CC[C@@H]6[C@@H]5C[C@@H](O)[C@]5(C)[C@@H](C7=CC(=O)OC7)CC[C@]65O)C4)O[C@@H]3C)O[C@@H]2C)C[C@H](O)[C@@H]1O", "note": "[Digoxin, reference compound]", "values": [
      {"measurement": "Recover Rate", "setting": "[3]", "value": 93, "unit": "%"}
    ]}
  ]
}
